Assay results: publication PMC10876215, “Nucleosome conformation dictates the histone code” (eLife, 2024)

Test system: GST-PHD-BD^N3007A (GST-PHD-BD^mut)
Format: binding, Human
Conditions: Supplementary file 1C, Nuc, N = 2
Text: Human BPTF (Uniprot Q12830) PHD finger-bromodomain (PHD-BD) and PHD finger were cloned into pGEX6p with an N-terminal Glutathione S-Transferase (GST) tag and a PreScission protease cleavage site (Supplementary file 2A and Figure 1—figure supplement 2). BPTF BD with an N-terminal 6xHistidine (6His) tag and Tobacco Etch Virus (TEV) protease cleavage site was from Addgene (plasmid 39111). The Q5 site-directed mutagenesis kit (New England Biolabs [NEB]) was used for domain addition/removal or single amino acid substitutions. All constructs were expressed in E. coli BL21 (DE3) (Thermo Fisher Scientific or NEB). Cells were grown to OD600 ~1.0 and induced with 0.8 mM IPTG at 18 °C for ~16 hr in LB (or M9 minimal media for NMR). M9 media was supplemented with vitamin (Centrum Adult), 1 g/L ^15NH4Cl, and 5 g/L D-glucose. For constructs containing the BPTF PHD finger all growth media and buffers were supplemented with 100 μM ZnCl2. For purification of BPTF recombinants cells were lysed by sonication, and lysates were incubated with either glutathione agarose (Thermo Fisher Scientific) or Ni-NTA resin (Thermo Fisher Scientific) to respectively enrich for GST- and 6His-tagged proteins. Fusion proteins were eluted with reduced L-glutathione or imidazole as appropriate. […] Protein concentrations were determined by UV-Vis spectroscopy. […]

Substance: H3K4me3tri^ac: histone H3 peptide H3K4me3K9acK14acK18ac (NMR version aa 1–34)
- LogEC50: -7.935
